The values that follow come from patent US20080159958A1, “DETERMINATION OF HISTAMINE-3 BIOACTIVITY” (Abbott Laboratories, priority 2006, published 2008).

By UniProt entry, the sequences of proteins in these tests, tags left out. Where a name states a change or a piece, a line headed by the entry shows the natural chain unless it says otherwise.
UniProt Q9QYN8: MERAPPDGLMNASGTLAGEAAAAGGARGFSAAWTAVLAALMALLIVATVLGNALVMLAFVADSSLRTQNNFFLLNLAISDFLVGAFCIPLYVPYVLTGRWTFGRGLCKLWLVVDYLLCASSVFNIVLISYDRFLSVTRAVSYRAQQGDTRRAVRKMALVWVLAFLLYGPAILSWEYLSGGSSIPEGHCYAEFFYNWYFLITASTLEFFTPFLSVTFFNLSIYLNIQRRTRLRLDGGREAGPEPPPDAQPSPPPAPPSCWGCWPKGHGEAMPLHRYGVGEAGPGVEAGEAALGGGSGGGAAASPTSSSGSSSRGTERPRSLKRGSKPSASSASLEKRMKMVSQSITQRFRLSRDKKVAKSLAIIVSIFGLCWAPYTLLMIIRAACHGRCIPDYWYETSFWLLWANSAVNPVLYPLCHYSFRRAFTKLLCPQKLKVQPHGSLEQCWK

The test addresses rat histamine H3 receptor (Rattus norvegicus, UniProt Q9QYN8). Nature of the test: Competition binding assay with [3H]-N-α-methylhistamine, rat H3 receptor. To be noted: read-out: rat H3 Ki; cloned rat H3 receptor, C6 or HEK293 cell membranes.

The term Ki denotes the equilibrium dissociation constant of an inhibitor or competing ligand from its target. Take `C[C@@H]1CCCN1CCc1cc2cc(-c3ccc(C#N)cc3)ccc2o1` [Compound 2, 4-(2-[2-((R)-2-methyl-pyrrolidin-1-yl)-ethyl]-benzofuran-5-yl}-benzonitrile]: the Ki was 0.45 nM.
